The values that follow are results of earlier work, collected in paper PMC4624469 (Synapse (New York, N.Y.), 2015).

The target of this data set is D2 Receptor. To be noted: read-out: Binding Affinity D2 Receptor; ref Heiderbreder et al., 2010; cited from earlier work.

Take `COc1ccccc1N1CCN(CCCCNC(=O)c2ccc3ccccc3c2)CC1` [BP 897]: the Ki was 61 nM.
